This is an account of results in patent US20040006236A1, “Diaminopropionic acid derivatives” (priority 1999, published 2004).

Sequences of proteins named here, by UniProt entry; tags and fusion partners are left off. Residues count along the entry.
UniProt P20701, 26-1170 limits assumed: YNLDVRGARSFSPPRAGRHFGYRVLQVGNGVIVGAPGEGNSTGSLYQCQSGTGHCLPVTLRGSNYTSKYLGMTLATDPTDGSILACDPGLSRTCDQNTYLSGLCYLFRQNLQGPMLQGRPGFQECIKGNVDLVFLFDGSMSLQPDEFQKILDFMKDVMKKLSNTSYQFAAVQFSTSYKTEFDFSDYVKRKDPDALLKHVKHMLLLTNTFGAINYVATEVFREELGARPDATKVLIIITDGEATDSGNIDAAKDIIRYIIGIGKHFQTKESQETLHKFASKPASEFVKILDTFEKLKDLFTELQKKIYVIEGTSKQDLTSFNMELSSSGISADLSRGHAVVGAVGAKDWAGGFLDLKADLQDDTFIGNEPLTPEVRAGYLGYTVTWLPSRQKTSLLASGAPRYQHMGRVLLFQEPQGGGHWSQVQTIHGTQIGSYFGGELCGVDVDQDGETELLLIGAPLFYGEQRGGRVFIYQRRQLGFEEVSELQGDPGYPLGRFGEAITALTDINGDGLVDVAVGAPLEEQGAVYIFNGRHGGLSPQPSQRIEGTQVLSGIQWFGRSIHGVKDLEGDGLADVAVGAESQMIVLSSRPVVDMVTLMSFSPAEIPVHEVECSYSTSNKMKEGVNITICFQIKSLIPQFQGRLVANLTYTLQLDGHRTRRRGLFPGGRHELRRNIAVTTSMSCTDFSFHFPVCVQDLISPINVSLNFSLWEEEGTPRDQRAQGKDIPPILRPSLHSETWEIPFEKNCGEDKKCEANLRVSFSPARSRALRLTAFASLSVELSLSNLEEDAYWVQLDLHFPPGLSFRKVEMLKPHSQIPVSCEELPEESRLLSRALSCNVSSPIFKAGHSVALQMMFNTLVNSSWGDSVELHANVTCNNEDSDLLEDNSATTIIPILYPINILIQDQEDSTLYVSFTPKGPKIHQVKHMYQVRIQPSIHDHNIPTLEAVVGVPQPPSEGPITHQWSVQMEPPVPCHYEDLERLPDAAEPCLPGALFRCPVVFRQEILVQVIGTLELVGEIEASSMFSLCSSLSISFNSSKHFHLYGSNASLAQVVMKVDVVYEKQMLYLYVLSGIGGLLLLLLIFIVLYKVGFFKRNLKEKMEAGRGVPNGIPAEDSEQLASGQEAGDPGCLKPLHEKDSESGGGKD

The target in assay [1] is LFA-1 binding to immobilized ICAM-1 (Homo sapiens, UniProt P05107+P20701). Nature of the assay: LFA-1/ICAM-1 protein-protein assay (solid-phase ELISA). As to conditions: read-out: LFA-1/ICAM-1 Protein-Protein Assay IC50. Background: An ELISA detects its analyte on a solid surface through an enzyme-linked reagent.
The subject of assay [2] is cell-surface Mac-1 adhesion to immobilized fibrinogen (HL-60 cells). Nature of the assay: Mac-1/Fibrinogen cell-based screening assay. As to conditions: read-out: Mac-1/Fgn Cell based Assay IC50.
The test system of assay [3] is T lymphocyte proliferation (C57BI/6 spleen cells with irradiated BALB/c spleen cells). Nature of the assay: Mixed lymphocyte reaction (MLR), one-way. As to conditions: read-out: MLR IC50.
For assay [4], the target named is ICAM-1 binding to immobilized Mac-1 (Homo sapiens, UniProt P05107+P11215). The assay is described as follows: Mac-1/ICAM-1 screening assay (solid-phase ELISA). As to conditions: read-out: Mac-1/ICAM-1 Protein-Protein Assay IC50.
Assay [5] relates to Mac-1 and LFA-1-mediated neutrophil binding to immobilized ICAM-1. The assay is described as follows: Neutrophil (Mac-1 and LFA-1)/ICAM-1 cell-based screening assay. As to conditions: read-out: Neutrophil/ICAM Assay IC50; human neutrophils. The protocol:
Both Mac-1 and LFA-1 are expressed on the cell surface of neutrophils. The ability of antagonists to inhibit Mac-1 and LFA-1-mediated neutrophil binding to immobilized ICAM-1 was quantitated by a cell based assay. Typically, fusion protein consisting of the entire extracellular domain of human ICAM-1 and the Fc domain of human IgG (5dICAM-Ig) was coated onto 96 well microtiter plates (1 μg in 100 μL TBS) overnight at 4° C. The plates were then blocked with 150 μL of 10% PVP in TBS for 1 h at 37° C. Plates were washed 3 times (150 μL each) with TBS. Human neutrophils were purified from whole blood from healthy volunteers using LSM (ICN). Cells (8×10^6/mL) were fluorescently labeled with 6-carboxyfluorescein (100 μg/mL) for 40 min in IMDM/1 mM MgCl2/1.2 mM CaCl2 as described in Example 287. Cells (8×10^6/mL) were stimulated with f-Met-Leu-Phe (10 μM) for 5 min at room temperature just prior to being used in the assay, and diluted to 2×10^6 cells/mL with RPMI/0.05% BSA/0.2 mM MnCl2. Stock solutions (10 mM) of test compounds were diluted to 2.5 mM with DMSO. A series of 1:4 dilutions in DMSO were performed to achieve a concentration range of 38.2 nM-2.5 mM. Each sample was further diluted 50-fold with RPMI/0.05% BSA/0.2 mM MnCl2. […] Unbound cells were washed and plates were read on a Cytofluor™ 2300 (Millipore) as described in Example 384.

Each structure is given as a SMILES string.

As to `CC(CN)C(=O)NC[C@H](NC(=O)c1ccc(C(=O)NCc2cccc(O)c2)cc1Cl)C(=O)O` (stereo partly drawn), the values for the IC50 in assay [1], in assay [2] and in assay [3] were 1.2 nM, 135 nM and 900 nM, respectively.

In the case of `O=C(NCc1cccc(O)c1)c1ccc(C(=O)N[C@@H](CNC(=O)C2CCc3ccccc3C2)C(=O)O)c(Cl)c1` (stereo partly drawn), the results for the IC50 in assay [1], in assay [4] and in assay [3] were 1.2 nM, 32 nM and 900 nM, respectively.

Take `CC(N)CC(=O)NC[C@H](NC(=O)c1ccc(C(=O)NCc2cccc(O)c2)cc1Cl)C(=O)O` (stereo partly drawn): the figures for the IC50 in assay [1], in assay [2] and in assay [3] were 3.3 nM, 155 nM and 1800 nM, respectively.

Consider `NC1CC=CCC1C(=O)NC[C@H](NC(=O)c1ccc(C(=O)NCc2cccc(O)c2)cc1Cl)C(=O)O` (stereo partly drawn), for which the IC50 in assay [1] came out at 2.9 nM; in assay [4], 18 nM; in assay [2] it was 107 nM; in assay [3], 1000 nM.

With `NC1CCCC(C(=O)NC[C@H](NC(=O)c2ccc(C(=O)NCc3cccc(O)c3)cc2Cl)C(=O)O)C1` (stereo partly drawn), the IC50 amounted to 2.7 nM in assay [1], 82 nM in assay [2] and 1640 nM in assay [3].

As for `CC1(C(=O)NC[C@H](NC(=O)c2ccc(C(=O)NCc3cccc(O)c3)cc2Cl)C(=O)O)CC1(Cl)Cl` (stereo partly drawn), the IC50 was found to be 3.1 nM in assay [1], 38 nM in assay [4] and 800 nM in assay [3].

Turning to `O=C(NCc1cccc(O)c1)c1ccc(C(=O)N[C@@H](CNC(=O)C2Cc3ccccc3N2)C(=O)O)c(Cl)c1` (stereo partly drawn), the figures for the IC50 in assay [1], in assay [2] and in assay [3] were 2.6 nM, 358 nM and 3100 nM, respectively.

For the molecule `Cc1nc(C)c(C(=O)NC[C@H](NC(=O)c2ccc(C(=O)NCc3cccc(O)c3)cc2Cl)C(=O)O)s1`, the IC50 in assay [1] was determined as 6.8 nM; in assay [4], 55 nM; in assay [3], 3750 nM.

As to `O=C1CC(C(=O)NC[C@H](NC(=O)c2ccc(C(=O)NCc3cccc(O)c3)cc2Cl)C(=O)O)c2cc(Br)ccc2N1` (stereo partly drawn), the IC50 in assay [1] worked out at 1.2 nM; in assay [4], 105 nM.

In the case of `NC1CCCCN(CC(=O)NC[C@H](NC(=O)c2ccc(C(=O)NCc3cccc(O)c3)cc2Cl)C(=O)O)C1=O` (stereo partly drawn), the IC50 in assay [1] was found to be 3 nM; in assay [2], 52 nM; in assay [3] it was 650 nM.

As to `O=C1CC(C(=O)NC[C@H](NC(=O)c2c(Cl)cccc2Cl)C(=O)O)c2cc(Br)ccc2N1` (stereo partly drawn), the values for the IC50 in assay [1] and in assay [3] were 34 nM and 31000 nM, respectively.

With `O=C(NCc1cccc(O)c1)c1ccc(C(=O)N[C@@H](CNC(=O)c2ccc(CCC(Br)CBr)cn2)C(=O)O)c(Cl)c1` (stereo partly drawn), the IC50 in assay [1] was 5 nM; in assay [4], 373 nM.

As to `O=C(NCc1cc(O)cc(O)c1)c1ccc(C(=O)N[C@@H](CNC(=O)c2cccs2)C(=O)O)c(Cl)c1`, the IC50 is 1.1 nM in assay [1], 35 nM in assay [5], 27 nM in assay [2] and 85 nM in assay [3].

As to `NC(CC(=O)NC[C@H](NC(=O)c1ccc(C(=O)NCc2cccc(O)c2)cc1Cl)C(=O)O)C(F)(F)F` (stereo partly drawn), the IC50 in assay [1] was 4.9 nM; in assay [2], 581 nM; in assay [3], 2400 nM.

Turning to `CC(CC(=O)NC[C@H](NC(=O)c1c(Cl)cccc1Cl)C(=O)O)c1ccccc1` (stereo partly drawn), the IC50 in assay [1] amounted to 19 nM; in assay [3], 5500 nM.

On to `O=C(NCc1cccc(O)c1)c1ccc(C(=O)N[C@@H](CNC(=O)C2CSCCC23OCCO3)C(=O)O)c(Cl)c1` (stereo partly drawn), for which the IC50 came to 2.4 nM in assay [1], 30 nM in assay [4] and 680 nM in assay [3].

On to `CC(CC(=O)NC[C@H](NC(=O)c1ccc(C(=O)NCc2cccc(O)c2)cc1Cl)C(=O)O)c1ccccc1` (stereo partly drawn), for which the IC50 is 2.7 nM in assay [1], 48 nM in assay [4] and 2850 nM in assay [3].

For the molecule `NC(Cc1ccc(F)cc1)C(=O)NC[C@H](NC(=O)c1ccc(C(=O)NCc2cccc(O)c2)cc1Cl)C(=O)O` (stereo partly drawn), the IC50 worked out at 7.2 nM in assay [1], 1160 nM in assay [2] and 13000 nM in assay [3].

As for `O=C(NCc1cccc2[nH]ccc12)c1ccc(C(=O)N[C@@H](CNC(=O)c2cccs2)C(=O)O)c(Cl)c1` [Compound G, N-[2-chloro-4-[[(1H-indol-4-ylmethyl)amino]carbonyl]benzoyl]-3-(thiophene-2-carbonyl)amino-L-alanine], the IC50 in assay [4] amounted to 22 nM; in assay [3], 445 nM.
